# Antibody variant affinities, Ab-14 heavy chain, assay 1

Source: Engelhart et al. 2022 (doi:10.1038/s41597-022-01779-4), MIT Lincoln Laboratory and A-Alpha Bio; data file from the FLAb repository.

All variants were tested on one target, the spike HR2 peptide PDVDLGDISGINAS (SARS-CoV-2).

Ab-14 is the parent antibody, in scFv form: VH, then a (GGGGS)3 linker, then VL. The light chain is unchanged in all variants.
VH: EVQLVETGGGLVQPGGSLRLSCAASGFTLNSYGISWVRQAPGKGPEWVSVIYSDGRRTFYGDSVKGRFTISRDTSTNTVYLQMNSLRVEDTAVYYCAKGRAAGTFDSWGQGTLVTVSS
VL: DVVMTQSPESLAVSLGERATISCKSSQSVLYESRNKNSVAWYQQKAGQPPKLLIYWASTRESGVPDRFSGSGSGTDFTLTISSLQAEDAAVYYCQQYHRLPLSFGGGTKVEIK

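Phage display of a naive human antibody library on the peptide gave the parent. The library (AAYL49) carries one to three amino acid substitutions per variant, with no insertions or deletions. The scFvs were displayed on barcoded MATa yeast, the peptide on MATalpha yeast. Binding brings cells together so that they mate, and sequencing counts the barcode pairs among the diploids. The ratio of observed to expected reads was calibrated, replicate by replicate, on BCL2-family standards whose Kd was known from biolayer interferometry. There are three technical replicates.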

Substitutions are numbered in sequence along the VH above, starting at 1 (not Kabat).
This list gathers variants with a substitution at A101 (VH, numbered from residue 1).
Each Kd is an estimate from the mating assay, the geometric mean of the replicates in which the pair was seen; lower is stronger.
A pair that was not seen in any replicate is written "nd"; this usually means weak binding, but a binder can also be missed.

- G26C/L29A/A101P: 14 µM (1 of 3 replicates)
- I34K/A101S/D106A: nd (0 of 3 replicates)
- R56W/K65R/A101H: nd (0 of 3 replicates)
- S35P/D62E/A101I: nd (0 of 3 replicates)
- T28G/N30F/A101H: 62 nM (3 of 3 replicates)
- K65R/A101G/G103V: nd (0 of 3 replicates)
- I51D/A101D/S107P: 14 µM (1 of 3 replicates)
- G61L/A101M/A102H: 53 µM (2 of 3 replicates)
- G61D/A101F: 740 nM (3 of 3 replicates)
- S35I/A101D: 740 nM (1 of 3 replicates)
- L29E/T58N/A101T: nd (0 of 3 replicates)
- S63C/A101Q/T104Q: 29 µM (1 of 3 replicates)
- R56T/A101H: 9.4 nM (3 of 3 replicates)
- D62Y/A101G/A102Q: 150 µM (1 of 3 replicates)
- I51Y/D62E/A101H: nd (0 of 3 replicates)
- I51Y/D54A/A101L: nd (0 of 3 replicates)
- D54W/D62W/A101V: nd (0 of 3 replicates)
- G26F/R100M/A101H: nd (0 of 3 replicates)
- L29A/D62C/A101V: 1.5 µM (1 of 3 replicates)
- Y32E/G61C/A101G: 150 nM (3 of 3 replicates)
- T28R/Y60E/A101K: nd (0 of 3 replicates)
- L29Y/N30E/A101N: 4.9 µM (3 of 3 replicates)
- I34T/I51W/A101R: 370 nM (1 of 3 replicates)
- T28I/A101T: 19 nM (3 of 3 replicates)
- Y52C/R100W/A101N: 54 µM (2 of 3 replicates)
- T28E/S63M/A101W: 52 nM (3 of 3 replicates)
- L29P/G99F/A101M: nd (0 of 3 replicates)

2 of these entries, quoted again:

{"changes": "T28G/N30F/A101H", "Kd (apparent)": "62 nM", "replicates with signal": "3 of 3"}
{"changes": "L29E/T58N/A101T", "Kd (apparent)": "nd", "replicates with signal": "0 of 3"}

As a blank, each scFv also met three strains without target: over library AAYL49, 15% of these pairings were detected, typically at 11 µM and seldom below 680 nM.
In this assay the parent's reference entry averaged 4.4 nM; its copy inside this library read 13 µM (one replicate of three).